For orientation: inhibition means the drop in the measured response relative to a control, in per cent.

Molecules are shown by their SMILES. This is a selection; strong and weak results do not stand in their true shares. Calls of active or inactive are those of the source.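 How the source made its calls: active means inhibition above 50%; inactive means the rest.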

The nature of this assay: human hepatoma cell viability loss – ATP luminescence, cytotoxicity control for P. falciparum antimalarial project, primary screen (AID 2303).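 Further: 0% = DMSO wells and 100% = digitonin-killed cells.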 As to conditions: HepG2 viability, 24-48 h, at 10 µM, hits give high values.
Regarding `CCN1CCCC(OC(=O)C(O)(c2ccc3c(c2)OCO3)c2ccc3c(c2)OCO3)C1` (configuration not stated), the inhibition is inactive: 3%.
The figure for `CCN1CCCC1COC(=O)C(O)(c1ccc2c(c1)OCO2)c1ccc2c(c1)OCO2` (configuration not stated) is inactive: 6%.

For the origin of these results see PubChem BioAssay AID2303 (GlaxoSmithKline (GSK), 2010).
